The results in this text go back to PubChem BioAssay AID927 (National Center for Advancing Translational Sciences (NCATS), 2007).

Amino acid sequences for entries named in this document (tags omitted).
UniProt O75604, whole entry: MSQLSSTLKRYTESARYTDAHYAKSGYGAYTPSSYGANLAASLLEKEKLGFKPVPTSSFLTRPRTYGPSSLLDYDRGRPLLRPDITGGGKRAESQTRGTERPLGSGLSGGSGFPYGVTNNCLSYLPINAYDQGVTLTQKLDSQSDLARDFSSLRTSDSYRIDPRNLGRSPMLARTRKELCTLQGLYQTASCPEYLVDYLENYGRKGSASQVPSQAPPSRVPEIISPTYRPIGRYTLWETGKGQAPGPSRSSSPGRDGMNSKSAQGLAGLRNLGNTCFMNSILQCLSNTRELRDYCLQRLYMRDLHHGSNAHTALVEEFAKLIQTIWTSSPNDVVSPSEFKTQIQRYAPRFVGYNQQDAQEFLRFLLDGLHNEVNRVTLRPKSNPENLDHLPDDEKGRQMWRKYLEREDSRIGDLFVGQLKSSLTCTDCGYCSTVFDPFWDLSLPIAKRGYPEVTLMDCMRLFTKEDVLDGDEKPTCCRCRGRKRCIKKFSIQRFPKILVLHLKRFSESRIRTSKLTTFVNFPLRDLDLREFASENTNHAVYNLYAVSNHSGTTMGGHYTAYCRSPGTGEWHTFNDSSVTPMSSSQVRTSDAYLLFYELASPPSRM

Each structure is given as a SMILES string. This is a selection; strong and weak results do not stand in their true shares. Activity calls are given as the source filed them. Calls follow the shape of the dose curve; as a rule, active = well fitted inhibition curve with a large enough effect; inconclusive = small, poorly fitted or top-dose-only effect; inactive = no such curve, though single readings can be large or run the other way.

In the assay the target is Ubiquitin carboxyl-terminal hydrolase 2 (Homo sapiens) (UniProt O75604). The experiment in a line: qHTS Assay for Inhibitors of Ubiquitin-specific Protease USP2a. Also: nearly all actives have a fitted effect of over 60% in size. The following applies: USP2a enzymatic assay; at 38.3 µM (top of the series) unless noted. From the text:
NIH Molecular Libraries Screening Centers Network [MLSCN]
NIH Chemical Genomics Center [NCGC]
PI Name: Nicholson, Ben. Progenra Inc, Malvern, PA
Homeostasis of cellular proteins is maintained through a combination of synthesis and degradation. The pathway that accounts for the majority of protein degradation is the ubiquitin-proteasomal pathway. Ubiquitin (Ub) is highly conserved in all cells and the generation of a multi-Ub chain typically targets proteins for degradation by the proteasome. However, ubiquitination is highly reversible and dynamic. Deubiquitination, the reverse process, is catalyzed through the action of enzymes referred to as isopeptidases or deubiquitinating enzymes (DUBs). This group of enzymes is collectively responsible for maintaining adequate pools of free ubiquitin and regulating the ubiquitination status of cellular proteins. The class of DUBs referred to as the ubiquitin-specific proteases (USP) family functions endoproteolytically to cleave Ub chains from a wide range of protein substrates. USP2a deubiquitinates fatty acid synthase (FASN) which has recently been identified as an emerging oncology target. To identify inhibitors of USP2a a cell-free assay was employed.
The reporter enzyme chosen is phospholipase A2 (PLA2), which has an absolute requirement for a free amino terminus. Thus, fusion of a UBL to the N-terminus of PLA2 inactivates PLA2. When the UBL-PLA2 reporter enzyme is cleaved by USP2, the activated reporter can subsequently act on its substrate, which is the commercially available NBD C6-HPC (Invitrogen). Thus, this coupled assay gives a fluorescent read-out, which is generated through the cleavage of the PLA2 reporter enzyme. The assay, developed by Progenra, Inc. uses Ub-PLA2 and USP2a at near equal and low (nM) amounts and has been licensed for sale by LifeSensors, Inc. as the Ub-IsoPro1 kit.
NCGC Assay Protocol Summary:
The assay buffer, prepared fresh at the day of the assay, contains 20mM Tris-HCl pH 8.0, 2mM CaCl2, 2mM beta-Mercaptoethanol, 0.1% DMSO. 3ul of 40nM (20nM final) USP2 core, which is stored on ice, is dispensed into a medium-binding black solid Kalypsys 1,536 well plate using the Kalypsys dispenser. The assay plate is then pinned with 23nL compound with the Kalypsys pintool in columns 5-48. The controls are pinned as follows: column 1&2 two-fold dilutions of 2M NEM in duplicate; column 3 DMSO; column 4 2M NEM (final concentration 38.2mM). The assay plate is incubated at RT for 30min. Subsequently, 3uL of 40nM (20nM final) Ub-PLA2 and 40uM (20uM final) NBD C6-HPC (stored on ice and protected from light) were dispensed into the plate using the Kalypsys dispenser. Plates were read immediately (0 Hour) on an Envision (Perkin Elmer) plate reader using the following wavelengths Ex 460nm /Em 535nm. Then, the assay plates were incubated for 2.5 hours and read again on the Envision using the same settings
Data were normalized to the to AC100 inhibition (NEM). Concentration-response curves were fitted to the normalized data and the concentration-response curves were then classified based on curve quality (r2), response magnitude and degree of measured activity. The time zero reading was used to flag fluorescence artifacts.
Keywords: ubiquitination, deubiquitination, proteases, profluorescent, MLSMR, MLSCN, NIH Roadmap, qHTS, NCGC
Background: Quantitative high-throughput screening tests each substance at several concentrations.
In the case of `COc1ccccc1OP(C)(=O)Nc1ccc(C)cc1` (configuration not stated), the activity change, negative = inhibition is inactive: 6.21%.
As for `CP(=S)(Nn1cnnc1)Oc1ccccc1` (configuration not stated), the figure is inactive: 2.36%; as for `CP(=O)(NC(=O)Nc1ccccc1)Oc1ccccc1` (configuration not stated), inactive: 4.26%; as for `CCOP(C)(=S)SCC(=O)NC(C)C(=O)O` (configuration not stated), inactive: -2.17%.
As for `Cc1ccc(C)c(NP(C)(=O)Oc2ccccc2)c1` (configuration not stated), the activity change, negative = inhibition is inactive: -1.75%.
The value for `CP(=O)(Nc1ccccc1F)Oc1ccccc1` (configuration not stated) was inactive: -2.73%; that for `CN(C)CCOC(=O)C(O)(c1ccccc1)C1CCCCC1` (configuration not stated) was inactive: 22.2%.
The value for `CCOP(C)(=S)SCC(=O)NC(C)(CC)C(=O)O` (configuration not stated) was inactive: 5.84%; that for `CP(=O)(Nc1ccc2c(c1)OCCO2)Oc1ccccc1` (configuration not stated) was inactive: 4.78%; that for `Cc1ccccc1NP(C)(=O)Nc1ccccc1C` was inactive: 5.3%.
The value for `CCN(CCCl)Cc1ccccc1C` was inactive: -5.66%.
As for `N#[O+].[C-]#N.[C-]#N.[C-]#N.[C-]#N.[C-]#N.[Fe+2].[Na+].[Na+]`, the activity change, negative = inhibition was inactive: 2.57%.
As to `OCCSCCO`, the activity change, negative = inhibition was inactive: -10.1%.
As for `COc1ccccc1OP(C)(=O)Nc1c(C)n(C)n(-c2ccccc2)c1=O` (configuration not stated), the figure is inactive: 7.92%; as for `CP(=O)(Oc1ccccc1)N1CCOC1=O` (configuration not stated), inactive: 1.46%.
Take `C/C1=C2N=C(/C=C3N=C(/C(C)=C4\[N-][C@@](C)([C@H]5N=C1[C@@](C)(CCC(=O)NC[C@H](C)OP(=O)([O-])O[C@@H]1[C@H](O)[C@H](n6cnc7cc(C)c(C)cc76)O[C@@H]1CO)[C@@H]5CC(N)=O)[C@](C)(CC(N)=O)[C@H]4CCC(N)=O)[C@@](C)(CC(N)=O)[C@@H]\3CCC(N)=O)C(C)(C)[C@@H]/2CCC(N)=O.[C-]#N.[Co+3]`: the activity change, negative = inhibition was inactive: -28.1% [at 17.1 µM].
The value for `Cc1nc2ccc3ccccc3c2o1.O=[N+]([O-])c1cc([N+](=O)[O-])c(O)c([N+](=O)[O-])c1` was inactive: -4.68%.
